pIC50: −log10 of the molar value.
Target: AOC3 (Homo sapiens (Human), UniProt Q16853)
Test: MAO-Glo AOC3 assay
Conditions: read-out: AOC3 IC50, recombinant CHO cells overexpressing AOC3 enzyme
Source text: The MAO-Glo™ Assay (commercial available from PROMEGA, #V1402) provides a sensitive method for the measurement of monoamine oxidase (MAO) activity (Valley, M. P. et al., 2006, Anal. Biochem. 359: 238-246) from a variety of tissues, biofluids or recombinant expressed or purified enzymes. As substrate a derivate of the beetle luciferin ((4S)-4,5-dihydro-2-(6-hydroxybenzothiazolyl)-4-thiazole-carboxylic acid) is used, which is oxidized at a primary amine moiety. After a spontaneous elimination and a catalyzed esterase reaction, the turnover of the luciferine by the luciferase is recorded as a signal of AOC3 activity.
For the determination of AOC3 activity or compound inhibition potency, the compound inhibitors are dissolved in DMSO and adjusted to the respective assay concentration with reaction buffer (50 mM HEPES, 5 mM KCl, 2 mM CaCl2), 1.4 mM MgCl2, 120 mM NaCl, 0.001% (v/v) Tween 20, 100 μM TCEP, pH 7.4). An aliquot of 3 μL of the compound dilution is added to a 384 well plate (Optiplate, PS, flat bottom, white, PERKIN ELMER, #6007290) with a final DMSO concentration of 6.6%. Recombinant CHO cells, overexpressing the human (1500 cells/well), mouse (1000 cells/well) or rat (500 cells/well) AOC3 enzyme are diluted in reaction buffer and added in a volume of 15 μL to the wells. […]

Protein sequences, listed by entry. Tags and fused reporters are not part of them.
UniProt Q16853, whole entry: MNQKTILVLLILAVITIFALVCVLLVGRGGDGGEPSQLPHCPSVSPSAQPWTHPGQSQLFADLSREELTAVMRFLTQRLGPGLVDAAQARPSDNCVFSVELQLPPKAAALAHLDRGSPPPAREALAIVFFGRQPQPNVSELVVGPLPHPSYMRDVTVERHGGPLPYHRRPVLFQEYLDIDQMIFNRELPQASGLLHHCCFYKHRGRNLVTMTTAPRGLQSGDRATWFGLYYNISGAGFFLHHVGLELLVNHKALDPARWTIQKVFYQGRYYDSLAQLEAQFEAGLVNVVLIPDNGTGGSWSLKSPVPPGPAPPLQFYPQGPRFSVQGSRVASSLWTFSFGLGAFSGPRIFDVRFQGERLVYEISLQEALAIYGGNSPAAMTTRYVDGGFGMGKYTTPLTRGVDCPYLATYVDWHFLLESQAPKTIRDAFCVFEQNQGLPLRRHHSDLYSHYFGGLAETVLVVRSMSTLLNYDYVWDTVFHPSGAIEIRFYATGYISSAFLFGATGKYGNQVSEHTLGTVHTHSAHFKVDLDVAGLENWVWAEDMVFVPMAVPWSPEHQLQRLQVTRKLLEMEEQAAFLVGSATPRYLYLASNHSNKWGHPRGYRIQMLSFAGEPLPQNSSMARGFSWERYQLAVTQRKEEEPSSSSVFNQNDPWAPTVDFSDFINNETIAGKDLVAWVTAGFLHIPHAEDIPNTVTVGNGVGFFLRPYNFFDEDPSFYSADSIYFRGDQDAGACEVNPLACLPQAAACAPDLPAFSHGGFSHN

N#Cc1ccc(COC(=O)NC(=N)N)c(F)c1N1CC(c2ccc(OCC3CC3)cc2)C1
pIC50: 6.69

— patent US10336729B2, “4-cyano-benzyl carbamimidoylcarbamate derivatives and their use as AOC3 inhibitors” (Boehringer Ingelheim International GmbH, priority 2016, dated 2019)
